This is a selection; strong and weak results do not stand in their true shares. Active and inactive are the calls of the source.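 The calls were made as follows: active = compound that reduces growth-factor-driven endothelial tube area in a mixed cell culture, no cutoff stated; inactive = the rest.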

The nature of this assay: inhibition of endothelial tube formation, primary screen, imaging, VEGF stimulated, CD31 staining, tube area, NPC library (AID 1117340). The settings on record: VEGF-stimulated ADSC/ECFC co-culture, at 10 µM, stronger effect = higher value.
Turning to `OCCSCCO`, the tube area decrease is inactive: -16.6%.
